One assay relates to SW620 cells. The assay can be described thus: Live/Dead cytotoxicity assay, hybridoma supernatant. Conditions: hybridoma supernatant or controls, 5 days.
Another assay concerns HT-29 cells. Described as above. Conditions: hybridoma supernatant or controls, 5 days.

As to sodium azide, the “Cytotoxicity (%) SW620 Average” value with SW620 cells stood at 68%. Also, the “Cytotoxicity (%) HT-29 Average” value with HT-29 cells was 61%.

The values are drawn from US6794494B1, “Cancerous disease modifying antibodies” (Arius Research, Inc., priority 2003, dated 2004).
